Laboratory results from ChEMBL document CHEMBL5055640, “Discovery of Novel Acetamide-Based Heme Oxygenase-1 Inhibitors with Potent In Vitro Antiproliferative Activity” (J Med Chem, 2021).

Species: Rattus norvegicus
Experiment: Selectivity index, ratio of IC50 for inhibition of Sprague-Dawley rat brain microsome HO-2 to IC50 for inhibition of Sprague-Dawley rat spleen microsome HO-1

Selectivity Index: 4.6
SMILES: Nc1ccc(SC[C@@H]2CO[C@](CCc3ccc(Cl)cc3)(Cn3ccnc3)O2)cc1
